The text below walks through data of patent US9937115B2, “Oral care compositions with improved flavor” (priority 2010, dated 2018).

Sequences of proteins named here, by UniProt entry; tags and fusion partners are left off.
UniProt O75762, whole entry: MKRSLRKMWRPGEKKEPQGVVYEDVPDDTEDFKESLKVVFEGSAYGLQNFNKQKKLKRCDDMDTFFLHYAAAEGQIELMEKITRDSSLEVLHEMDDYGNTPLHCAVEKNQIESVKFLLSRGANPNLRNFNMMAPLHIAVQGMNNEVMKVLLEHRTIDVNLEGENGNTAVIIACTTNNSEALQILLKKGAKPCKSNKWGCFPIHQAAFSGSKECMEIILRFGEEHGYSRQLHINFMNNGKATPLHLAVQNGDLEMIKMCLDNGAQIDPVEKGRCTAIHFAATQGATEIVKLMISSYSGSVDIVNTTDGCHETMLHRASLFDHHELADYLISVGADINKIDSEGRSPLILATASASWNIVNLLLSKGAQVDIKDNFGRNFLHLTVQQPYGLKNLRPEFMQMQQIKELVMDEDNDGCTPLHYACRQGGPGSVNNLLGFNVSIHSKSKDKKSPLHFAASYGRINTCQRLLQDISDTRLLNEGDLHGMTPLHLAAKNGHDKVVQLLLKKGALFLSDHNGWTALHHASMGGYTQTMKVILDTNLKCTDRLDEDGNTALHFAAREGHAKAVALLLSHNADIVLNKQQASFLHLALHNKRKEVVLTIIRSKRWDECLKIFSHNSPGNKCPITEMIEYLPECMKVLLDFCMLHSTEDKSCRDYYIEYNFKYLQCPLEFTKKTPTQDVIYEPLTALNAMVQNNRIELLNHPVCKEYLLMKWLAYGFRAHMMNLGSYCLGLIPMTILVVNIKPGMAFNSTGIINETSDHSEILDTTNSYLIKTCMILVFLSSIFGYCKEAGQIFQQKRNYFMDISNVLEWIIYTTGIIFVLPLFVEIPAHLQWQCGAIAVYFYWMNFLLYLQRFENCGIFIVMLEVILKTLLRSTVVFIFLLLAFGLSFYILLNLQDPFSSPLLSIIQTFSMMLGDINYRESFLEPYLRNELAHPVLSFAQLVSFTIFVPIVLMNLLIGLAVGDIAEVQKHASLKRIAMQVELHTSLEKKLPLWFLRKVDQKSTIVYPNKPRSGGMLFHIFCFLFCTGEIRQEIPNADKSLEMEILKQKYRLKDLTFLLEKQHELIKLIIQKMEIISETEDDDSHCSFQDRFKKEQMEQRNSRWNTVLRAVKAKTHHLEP

Read-outs that look alike come from different tables or passages of the source.

The target of this test is T1, TRPA1 receptor (Homo sapiens, UniProt O75762).
T1 construct: expressed in transfected cells; host or cells: HEK cell line
As to the kind of experiment: cell-based. Also noted: activation: dose or concentration left out as unconfirmed. On the procedure:
The term “TRPA1 activator” as used herein refers to any component which at a concentration of 1 mM gives a calcium flux count of at least 1000 counts above the background level of calcium present in the cell according to the FLIPR method as discussed herein. The term “count” is defined as the change in fluorescence of the transfected cell lines due to the influx of calcium across the cell membrane, which reacts with the calcium sensitive dye present within the cells.
In order to select TRPA1 agonists that would be preferred for reducing off-tasting chemical components found in oral care compositions, calcium flux receptor activity on the TRPA1 was utilized as the criteria for selection of actives. With allyl isothiocyanate as the TRPA1 positive control, molecules that directly activated the TRPA1 receptor were screened in dimethylsulfoxide (DMSO). Pure molecules of each material were dissolved in DMSO at a concentration of 100 micormolar and then added to an HEK cell line containing the TRPA1 receptor. If they are TRPA1 agonists, they will cause a calcium flux in the cell which fluoresces and may then be measured using a FLIPR machine.

[1] abbreviates: HEK293, read-out: TRPA1 Direct addition.
Setting [2] is: HEK293, read-out: TRPA1 Pre-incubation.
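Wherever TRPA1 Pre-incubation is given: values above 100 mean more active than the control.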

With `O=C(O)C=Cc1ccccc1` [Cinnamic Acid], the activation reads like this: under setting [1], -1.66%; under setting [2], 63.1%.
Take Zinc Phosphate: the “TRPA1 Direct addition” value amounted to 23.15% and the “TRPA1 Pre-incubation” value is recorded as 54.62%.
Consider `CCCCCC(C=O)=Cc1ccccc1` [Alpha-Amylcinnamaldehyde], for which the activation by setting is: under setting [1], -2.55%; under setting [2], 38.1%.
Regarding `CC(=O)CCC=C(C)C` [6-Methyl-5-Hepten-2-one], the activation reads like this: under setting [1], 0.49%; under setting [2], -1.44%.
